# Yeast mating assay 1: variants of the scFv Ab-14

Target: peptide PDVDLGDISGINAS, taken from heptad repeat 2 (HR2) of SARS-CoV-2 spike.

The variants keep the heavy chain, the linker and the frameworks of Ab-14 (scFv order VH, a 15-residue (Gly4Ser)3 linker, VL).
VH: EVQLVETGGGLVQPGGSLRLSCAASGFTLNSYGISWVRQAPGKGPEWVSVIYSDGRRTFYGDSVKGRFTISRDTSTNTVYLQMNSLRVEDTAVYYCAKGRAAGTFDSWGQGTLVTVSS
VL: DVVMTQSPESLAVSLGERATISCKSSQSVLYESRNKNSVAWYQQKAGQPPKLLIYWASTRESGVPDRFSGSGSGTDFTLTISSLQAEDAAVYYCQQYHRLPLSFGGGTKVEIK

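The parent was found by panning a naive human phage display library on the peptide. The library (AAYL50) carries one to three amino acid substitutions per variant, with no insertions or deletions. In AlphaSeq, yeast of one mating type display the scFv and yeast of the other type display the target. After mating in shaken culture at 30 °C for 16 h, diploids were selected and their barcode pairs sequenced. Read counts were normalised to the haploid input and turned into Kd by a linear fit to BCL2-family pairs of known affinity, for each replicate. There are three technical replicates.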

Positions count from residue 1 of the parent VL; V29M puts M in place of V. Scale: log10 of Kd in nM, estimated from mating counts; low values are strong binders. Replicates are averaged; those with no signal do not enter the mean. "n.d." means that the variant was in the library but no mating with the target was seen in that replicate; the authors take this as a sign of poor binding, and no number exists. For reference, the parent read 0.65 as the reference entry and 1.68 as a member of this library. Background: pairings of library AAYL50 with three empty control strains gave a value in 18% of cases (median 4.19, 5th percentile 2.99). Values in that range, when seen in few replicates, are hard to tell from nonspecific mating.

changes,"log10 Kd, replicates","log10 Kd (nM), mean"
V29M/K36L/V39P,4.15 / 5.32 / 5.01,4.83
V39R/Q95F,n.d. / n.d. / n.d.,n.d.
K24S/R60P,2.83 / 2.39 / 3.00,2.74
L30R/K36N/E61F,1.65 / 1.71 / 1.77,1.71
S26A/N35K/P101Q,1.52 / 1.54 / 1.54,1.53
N35Y/K36N/S103H,n.d. / n.d. / n.d.,n.d.
Y31R/N37R/A40Y,6.10 / n.d. / n.d.,6.10
S38I/Q96W/Y97Q,5.39 / 4.58 / 4.96,4.98
S28A/R34F/S62R,n.d. / n.d. / n.d.,n.d.
S25P/S26V,n.d. / 3.69 / n.d.,3.69
S25D/A40F/S58P,n.d. / n.d. / n.d.,n.d.
E32N/R34Q/P101G,0.63 / 0.93 / 0.90,0.82
N35L/R60A/L100S,4.89 / n.d. / n.d.,4.89
N37Q/T59A/E61C,1.82 / 1.64 / 1.84,1.76
V29P/Q95D/H98C,5.17 / 3.71 / n.d.,4.44
T59W/Y97N/H98R,2.13 / 1.92 / 2.16,2.07
K24G/S25A/A57P,n.d. / n.d. / 4.32,4.32
A57T/S58M/R60E,5.78 / n.d. / n.d.,5.78
Y31V/L100Y/L102Y,n.d. / n.d. / n.d.,n.d.
K36D/S38Q/T59N,1.32 / 1.24 / 1.06,1.21
S25K/N37F/Y97L,3.15 / n.d. / n.d.,3.15
A57E/S58G/Q96P,n.d. / 4.28 / 3.71,3.99
V29F/E32S/T59K,1.66 / 1.74 / 2.01,1.80
V29F/Q95H/L102P,n.d. / n.d. / n.d.,n.d.
S28P/S62G/R99K,1.64 / 2.15 / 1.62,1.80
Y31R/E61G/S103P,n.d. / n.d. / n.d.,n.d.
Y31R/E61D/P101Q,n.d. / 5.39 / 4.97,5.18
N35I/E61R/Y97R,n.d. / n.d. / n.d.,n.d.
E32W/Q95F/P101M,2.66 / 2.46 / 2.19,2.44
N35S/Q95T/L102S,0.86 / 1.19 / 1.23,1.09
N37M/E61V/H98R,2.07 / 2.36 / 3.83,2.75
S28K/W56N/S103I,-0.02 / 0.27 / 0.17,0.14
S28Q/V39W/W56I,n.d. / n.d. / n.d.,n.d.
S33T/V39Y/A57F,n.d. / n.d. / n.d.,n.d.
K24A/K36I/N37F,3.89 / 3.11 / 3.34,3.45
V29F/R99Y/L102M,n.d. / n.d. / n.d.,n.d.
V29P/A40Q/R99V,n.d. / n.d. / n.d.,n.d.
N35P/S62Q/L100C,3.37 / 3.58 / 3.74,3.56

6 of these entries, quoted again:

| changes | log10 Kd, replicates | log10 Kd (nM), mean |
|---|---|---|
| S33T/V39Y/A57F | n.d. / n.d. / n.d. | n.d. |
| N35L/R60A/L100S | 4.89 / n.d. / n.d. | 4.89 |
| K24G/S25A/A57P | n.d. / n.d. / 4.32 | 4.32 |
| A57E/S58G/Q96P | n.d. / 4.28 / 3.71 | 3.99 |
| N37Q/T59A/E61C | 1.82 / 1.64 / 1.84 | 1.76 |
| S25P/S26V | n.d. / 3.69 / n.d. | 3.69 |

Values reported by Engelhart et al. 2022, doi:10.1038/s41597-022-01779-4 (FLAb copy).